This is a sample that favours compounds with a hit; in the whole collection about 1.7% have one here.
CAL PDZ FP-1: CAL PDZ (human) peptide binding inhibition. Q9HD26. purified CAL PDZ, TMR-peptide fluorescence polarization, 1 h. inhibition, % at 24.9 µM. 300,000 tested, 0.92% active;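 active = mean inhibition of at least 30% with at least half of replicates also reaching 30%; inconclusive = no clear call, values can overlap the other calls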
dFosB act-1: mouse delta FosB homodimer activation. P13346. purified delta FosB, TAMRA-CDK5 oligo fluorescence polarization; percent of positive-control signal above neutral wells. activation, % at 25 µM. 340,000 tested, 0.99% active. AID 493131;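 active = mean activation above about 17%, with every replicate also reaching it, limit read from the data, passing the limit was not always enough; inconclusive = only one of the two conditions met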
UUG fidelity: modulators of start codon recognition fidelity in yeast; S. cerevisiae UUG-firefly luciferase reporter, luminescence/redox ratio; AID 602363; 350,000 tested, 0.13% active; activity score, % at 18.7 µM;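 active = replicate mean at a twofold rise or more, about +100% in these data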;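 also: firefly luciferase made from a UUG start codon reports start codon fidelity; reporter light over untreated wells divided by growth signal over untreated wells; some hits fall short of that in this replicate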
Dyrk1A ADPGlo: blocks rat Dyrk1A kinase activity; ADP-Glo luminescence, NFATc1 peptide; inhibition, % at 12.5 µM; 310,000 tested, 0.43% active; AID 504441; in the data active = inhibition above about 50%
CAL PDZ FP-2: blocks peptide binding to human CAL PDZ domain; purified CAL PDZ, TMR-peptide fluorescence polarization, 1 h; inhibition, % at 20 µM; 330,000 tested, 0.02% active;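 active = highest replicate inhibition of at least 40%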
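Control set: unlabelled peptide and DMSO controls / Material: purified CerCALP PDZ construct / Timing: 1 h incubation at room temperature before polarization reading / Doses: 20 µM, one dose / Detection: fluorescence polarization (mP)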
CDK5 p35 inh: inhibitors of human CDK5/p35 kinase; AID 488839; Recombinant CDK5/p35, ADP-Glo luminescence, 60 min; 330,000 tested, 0.01% active; inhibition, % at 10 µM;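 active = highest replicate inhibition of at least 50% and at least 75% of replicates reaching 50%; inconclusive = only one of the two criteria met; inactive = both criteria failed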
dFosB act-2: activators of mouse delta FosB homodimer DNA binding; shares compounds with dFosB act-1; purified delta FosB, TAMRA-CDK5 oligo fluorescence polarization; normalised: neutral wells 0, positive control 100; activation, % at 24.9 µM; 2,400 tested, under 10 active; AID 588690;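 active = highest replicate activation at or above 34% and every replicate reaching that threshold; inconclusive = meets only one of the two criteria; inactive = meets neither criterion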;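 also: higher polarization means more probe DNA bound by delta FosB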
Hits are given with their value.

How did CCc1ccc(-n2nnnc2SCC(=O)Nc2ccc(NC(C)=O)cc2)cc1 do in these assays?
CAL PDZ FP-1: inactive; dFosB act-1: 18; UUG fidelity: inactive; CAL PDZ FP-2: inactive; CDK5 p35 inh: inactive; dFosB act-2: inactive

How did O=C(CSc1nnnn1-c1ccc(Cl)cc1)NC(=O)Nc1ccc2c(c1)OCCO2 do in these assays?
CAL PDZ FP-1: inactive; dFosB act-1: 21; UUG fidelity: inactive; Dyrk1A ADPGlo: inactive; CAL PDZ FP-2: inactive; CDK5 p35 inh: inactive; dFosB act-2: inactive

Results for Cc1ccc(-n2nnnc2SCC(=O)NC(=O)Nc2ccc3c(c2)OCCO3)cc1 ?
CAL PDZ FP-1: inactive; dFosB act-1: inconclusive; Dyrk1A ADPGlo: inactive; CAL PDZ FP-2: inactive; CDK5 p35 inh: inactive

How did COc1ccc(NC(=O)CSc2nnnn2-c2ccc(F)cc2)cc1 do in these assays?
CAL PDZ FP-1: inactive; dFosB act-1: inactive; UUG fidelity: inactive; Dyrk1A ADPGlo: inactive; CAL PDZ FP-2: inactive; CDK5 p35 inh: inactive

What do the screens show for `CC(C)NC(=O)Nc1ccc2c(c1)CC(=O)N([C@@H](C)CO)C[C@@H](C)[C@H](CN(C)Cc1ccncc1)O2`?
UUG fidelity: inactive

Results for C[C@@H]1CN([C@H](C)CO)C(=O)c2cc(C#Cc3ccccc3F)cnc2O[C@H]1CN(C)C(=O)C1CCOCC1 ?
UUG fidelity: inactive

Results for CCN(CC)S(=O)(=O)c1ccc(-c2nnc(SCC(=O)Nc3ccc4c(c3)OCO4)o2)cc1 ?
CAL PDZ FP-1: inactive; dFosB act-1: 31; Dyrk1A ADPGlo: inactive; CAL PDZ FP-2: inactive; CDK5 p35 inh: inactive; dFosB act-2: inactive

How did O=C(COC(=O)CSc1nnc(-c2ccc(Cl)cc2)o1)NCc1ccc2c(c1)OCO2 do in these assays?
dFosB act-1: 24; UUG fidelity: inactive; Dyrk1A ADPGlo: inactive; CAL PDZ FP-2: inactive; CDK5 p35 inh: inactive; dFosB act-2: inactive

Results for O=C(COC(=O)Cc1ccc(Cl)cc1)NCc1ccc2c(c1)OCO2 ?
CAL PDZ FP-1: inactive; dFosB act-1: inactive; UUG fidelity: inactive; Dyrk1A ADPGlo: inactive; CAL PDZ FP-2: inactive; CDK5 p35 inh: inactive

Results for CN(C)CC(=O)Nc1ccc2c(c1)[C@H]1C[C@@H](CC(=O)NCc3ccccc3)O[C@@H](CO)[C@H]1O2 ?
UUG fidelity: inactive

What do the screens show for `CCOc1ccc(CCNC(=O)c2nnn(CC(=O)Nc3ccc(OC)c(OC)c3)c2N)cc1OCC`?
CAL PDZ FP-1: inactive; dFosB act-1: inactive; Dyrk1A ADPGlo: inactive; CAL PDZ FP-2: inactive; CDK5 p35 inh: inactive

What do the screens show for `COc1ccc(NC(=O)Cn2nnc(C(=O)NCCc3ccccc3)c2N)cc1`?
dFosB act-1: 29; Dyrk1A ADPGlo: inactive; CAL PDZ FP-2: inactive; CDK5 p35 inh: inactive; dFosB act-2: inactive

What do the screens show for `CCc1ccc(NC(=O)Cn2nnc(C(=O)NCCc3ccc(OC)c(OC)c3)c2N)cc1`?
CAL PDZ FP-1: inactive; dFosB act-1: 83; UUG fidelity: inactive; Dyrk1A ADPGlo: inactive; CAL PDZ FP-2: inactive; CDK5 p35 inh: inactive; dFosB act-2: inactive

How did CCOc1ccc(CCNC(=O)c2nnn(CC(=O)Nc3ccc(OC)cc3)c2N)cc1OCC do in these assays?
CAL PDZ FP-1: inactive; dFosB act-1: inactive; UUG fidelity: inactive; Dyrk1A ADPGlo: inactive; CAL PDZ FP-2: inactive; CDK5 p35 inh: inactive

What do the screens show for `COc1ccccc1CNC(=O)/C=C/c1cc2c(cc1Br)OCO2`?
CAL PDZ FP-1: inactive; dFosB act-1: 45; UUG fidelity: inactive; Dyrk1A ADPGlo: inactive; CAL PDZ FP-2: inactive; CDK5 p35 inh: inactive; dFosB act-2: inactive

Results for COc1ccccc1/C=C/C(=O)NCC(=O)N/N=C/c1ccc2c(c1)OCO2 ?
CAL PDZ FP-1: inactive; dFosB act-1: inactive; Dyrk1A ADPGlo: inactive; CAL PDZ FP-2: inactive; CDK5 p35 inh: inactive

Results for COc1cc(/C=N/NC(=O)c2cccnc2)ccc1OCC(=O)Nc1c(C)cc(C)cc1C ?
CAL PDZ FP-1: inactive; dFosB act-1: 26; UUG fidelity: inactive; Dyrk1A ADPGlo: inactive; CAL PDZ FP-2: inactive; CDK5 p35 inh: inactive; dFosB act-2: inactive

Results for COc1cc(/C=N/NC(=O)c2cccnc2)ccc1OCC(=O)Nc1ccccc1Cl ?
dFosB act-1: 116; UUG fidelity: inactive; Dyrk1A ADPGlo: inactive; CAL PDZ FP-2: inactive; CDK5 p35 inh: inactive; dFosB act-2: inactive

Compound activity as filed in PubChem BioAssay.
